Laboratory results reported in patent publication US20220218627A1 (priority 2019, published 2022).

Test system: Cluster headache patients
Assay: Case studies (1-3) of individual Cluster headache patients
Settings: IV, person

Q: Which “Case 3: success in shutting the cluster episode down” value does the source give for Magnesium sulfate here?
A: only partial success
